The chains behind the UniProt entries cited, without tags or fusion partners. Where a name states a change or a piece, a line headed by the entry shows the natural chain unless it says otherwise.
UniProt P33534: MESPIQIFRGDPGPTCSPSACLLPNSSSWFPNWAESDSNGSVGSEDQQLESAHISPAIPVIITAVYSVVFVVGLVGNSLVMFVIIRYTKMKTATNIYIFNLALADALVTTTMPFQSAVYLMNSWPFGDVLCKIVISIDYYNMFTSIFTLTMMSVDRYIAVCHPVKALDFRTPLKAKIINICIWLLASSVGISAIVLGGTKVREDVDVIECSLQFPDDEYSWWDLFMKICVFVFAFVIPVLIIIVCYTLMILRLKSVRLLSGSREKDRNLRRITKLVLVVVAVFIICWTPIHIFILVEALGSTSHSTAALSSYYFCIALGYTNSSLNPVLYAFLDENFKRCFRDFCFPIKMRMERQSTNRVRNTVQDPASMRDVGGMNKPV

In article PMC10698194 (Nature Communications, 2023):

What was measured:
Type in all cases: cell-based
mouse KOR, Gαgustducin = mouse KOR, Gαgustducin (Mus musculus, UniProt P33534); experiment: TRUPATH BRET G protein assay, Gαgustducin; settings: read-out: Emax (%) Gαgustducin
mouse KOR, Gαz = mouse KOR, Gαz (Mus musculus, UniProt P33534); experiment: TRUPATH BRET G protein assay, Gαz; settings: read-out: Emax (%) Gαz
mouse KOR, GαoB = mouse KOR, GαoB (Mus musculus, UniProt P33534); experiment: TRUPATH BRET G protein assay, GαoB; settings: read-out: Emax (%) GαoB
mouse KOR, Gαi2 = target: T1, mouse KOR, Gαi2 (Mus musculus, UniProt P33534); experiment: TRUPATH BRET G protein assay, Gαi2
T1 construct: expressed in transfected cells; host or cells: HEK293T (ATCC, CRL-3216), transient

mouse KOR, Gαi3 = mouse KOR, Gαi3 (Mus musculus, UniProt P33534); experiment: TRUPATH BRET G protein assay, Gαi3; settings: read-out: Emax (%) Gαi3
mouse KOR, GαoA = mouse KOR, GαoA (Mus musculus, UniProt P33534); experiment: TRUPATH BRET G protein assay, GαoA; settings: read-out: Emax (%) GαoA
mouse KOR, Gαi1 = mouse KOR, Gαi1 (Mus musculus, UniProt P33534); experiment: TRUPATH BRET G protein assay, Gαi1; settings: read-out: Emax (%) Gαi1

CC(C)=CCN1CCC2(C)c3cc(O)ccc3CC1C2C (centres unmarked) [Pentazocine, pentazocine]
Emax (mouse KOR, Gαgustducin): 79 ± 6%
Emax (mouse KOR, Gαz): 40 ± 2%
Emax (mouse KOR, GαoB): 45 ± 7%
EC50 (mouse KOR, Gαi2): 0.014 µM
Emax (mouse KOR, Gαi2; TRUPATH): 42 ± 6%
Emax (mouse KOR, Gαi3): 54 ± 3%
Emax (mouse KOR, GαoA): 35 ± 8%
Emax (mouse KOR, Gαi1): 58 ± 4%
